Results on 61 compounds are retold here after PubChem BioAssay AID588493 (Sanford-Burnham Center for Chemical Genomics, 2011).

Chains of the proteins cited; added tags and fusions are not shown.
UniProt O00487, whole entry: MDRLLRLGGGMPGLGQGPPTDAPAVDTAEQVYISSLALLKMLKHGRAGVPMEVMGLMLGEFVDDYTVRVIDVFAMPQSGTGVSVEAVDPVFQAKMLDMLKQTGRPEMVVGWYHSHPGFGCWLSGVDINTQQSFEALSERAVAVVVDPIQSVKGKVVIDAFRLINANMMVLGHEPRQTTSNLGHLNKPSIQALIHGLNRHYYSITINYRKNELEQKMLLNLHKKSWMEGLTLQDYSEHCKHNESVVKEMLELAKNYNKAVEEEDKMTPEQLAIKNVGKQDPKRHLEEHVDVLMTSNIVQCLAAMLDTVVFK

Each structure is given as a SMILES string. Only a part is listed here, and it is no random draw. Active and inactive are the calls of the source.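 The calls were made as follows: active = inhibition at 20 µM, scaled to each plate's controls, above about 33% (limit read from the data); inactive = the rest.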

For the assay, the target named is 26S proteasome non-ATPase regulatory subunit 14 (Homo sapiens) (UniProt O00487). Briefly: inhibition of 26S proteasome subunit Rpn11 – biochemical, fluorescence polarization, uHTS, primary screen (AID 588493). Particulars: human 26S proteasome, Ub4-pepOG fluorescence polarization; at 20 µM; active compounds read high; 20S core pre-blocked with epoxomicin. Background: In fluorescence polarisation assays a small probe gives low polarisation when free and higher when bound to something large.
A word on the inhibition: it is the relative decrease from the control value, in per cent. On to `CC(C)(C)n1nnnc1C(c1ccccc1OC(F)(F)F)N1CCC(n2c(=O)[nH]c3ccccc32)CC1` (stereo unspecified), for which the inhibition is inactive: 4.1%. As for `O=C(NCC1(N2CCCCC2)CCCCC1)c1ccc(OC(F)F)cc1`, the inhibition was inactive: 6.5%. The result for `CCN1CCC(Nc2ccc(Cl)cc2)CC1` reads inactive: 0.1%. The result for `N#CC1(Nc2ccccc2)CCN(CCc2ccccc2)CC1` reads inactive: 2%; that for `O=c1[nH]c2ccccc2n1C1CCN(C(c2ccccc2OC(F)(F)F)c2nnnn2C2CCCC2)CC1` (stereo unspecified), inactive: 8.1%; that for `O=C(NCC1(N2CCCCC2)CCCCC1)c1cccc([N+](=O)[O-])c1`, inactive: 0.8%. With `CSc1ccc(C(=O)NCC2(N3CCOCC3)CCCCC2)cc1` the figure was inactive: 2.9%; with `O=C(NCC1(N2CCCCC2)CCCCC1)c1cccc(C(F)(F)F)c1`, inactive: 5.2%. On to `COc1cc(C(=O)NCC2(N3CCCCC3)CCCCC2)ccc1OC(F)F`, for which the inhibition is inactive: 13.2%. With `O=C(NCC1(N2CCOCC2)CCCCC1)c1cc(=O)[nH]c2ccccc12` the figure was inactive: -2.4%. The result for `CCCCn1nnnc1C(c1cccc2ccccc12)N1CCC(n2c(=O)[nH]c3ccccc32)CC1` (stereo unspecified) reads inactive: 11.8%; that for `CN1CCN(CCOC(=O)C(O)(c2ccccc2)c2ccccc2)CC1`, inactive: -12.6%. `COc1ccc(NC2CCN(C(=O)OC(C)(C)C)CC2)cc1`: the inhibition was inactive: 1.5%. The result for `CC(C)c1ccc(C(=O)NCC2(N3CCOCC3)CCCCC2)cc1` reads inactive: 0.1%; that for `CCCCn1nnnc1C(c1ccccc1OC(F)(F)F)N1CCC(n2c(=O)[nH]c3ccccc32)CC1` (stereo unspecified), inactive: 0.4%; that for `CC(C)c1ccc(NC2CCN(C(=O)OC(C)(C)C)CC2)cc1`, inactive: 1.1%. Take `COc1ccc(CN(CCCl)CCCl)cc1Cl`: the inhibition is inactive: 0.6%. The result for `CN(C)c1cccc(C(=O)NCC2(N3CCCCC3)CCCCC2)c1` reads inactive: -2.2%; that for `COc1cc(OC)c(C(=O)NCC2(N(C)C)CCCCC2)cc1OC`, inactive: 3.8%. As to `CCC(c1nnnn1C(C)(C)C)N1CCC(n2c(=O)[nH]c3ccccc32)CC1` (stereo unspecified), the inhibition was inactive: 5.9%. With `O=C(NCC1(N2CCOCC2)CCCCC1)c1cc(F)c(F)cc1Cl` the figure was inactive: 3.4%; with `CCCCn1nnnc1C(c1ccnc2ccccc12)N1CCC(n2c(=O)[nH]c3ccccc32)CC1` (stereo unspecified), inactive: 4.8%; with `O=C(NCC1(N2CCCCC2)CCCCC1)c1cncc(Br)c1`, inactive: -3%. In the case of `CN1CCC(Nc2cccc(F)c2)CC1`, the inhibition is inactive: -5%. Turning to `COc1ccc(C(c2nnnn2C2CCCC2)N2CCC(n3c(=O)[nH]c4ccccc43)CC2)cc1` (stereo unspecified), the inhibition is inactive: 6.2%.

For `Cc1ccc(C(=O)NCC2(N(C)C)CCCCC2)o1`, the inhibition was inactive: 1.2%. With `CCCOc1ccc(C(=O)NCC2(N(C)C)CCCCC2)cc1OC` the figure was inactive: -4.2%; with `COc1ccc(C(=O)NCC2(N3CCCCC3)CCCCC2)cc1`, inactive: 4.4%; with `CCC(c1nnnn1C1CCCC1)N1CCC(n2c(=O)[nH]c3ccccc32)CC1` (stereo unspecified), inactive: 10.9%. The result for `COc1ccc(C(=O)NCC2(N3CCCCC3)CCCCC2)c(OC)c1OC` reads inactive: -5.6%. As for `CC(C)(C)OC(=O)N1CCC(N(C(=O)c2ccccc2)c2ccc(F)cc2)CC1`, the inhibition was inactive: -11.7%. `O=C(NCC1(N2CCCCC2)CCCCC1)c1ccc(=O)[nH]c1`: the inhibition was inactive: -3.7%. In the case of `CCCCn1nnnc1C(c1cccs1)N1CCC(n2c(=O)[nH]c3ccccc32)CC1` (stereo unspecified), the inhibition is inactive: 0.9%. The result for `CCCCn1nnnc1C(CC)N1CCC(n2c(=O)[nH]c3ccccc32)CC1` (stereo unspecified) reads inactive: 4.5%; that for `O=C(NCC1(N2CCCCC2)CCCCC1)c1cccs1`, inactive: 2.9%.

Take `CSc1ccccc1C(=O)NCC1(N2CCCCC2)CCCCC1`: the inhibition was inactive: 9.9%.

With `Cc1cccc(NC2(C#N)CCN(Cc3ccccc3)CC2)c1`, the inhibition is inactive: -2.9%. For `O=c1[nH]c2ccccc2n1C1CCN(C(c2ccccc2OC(F)(F)F)c2nnnn2C2CCCCC2)CC1` (stereo unspecified), the inhibition is inactive: 15.6%. With `O=C(NCC1(N2CCCCC2)CCCCC1)c1ccc(Cl)nc1` the figure was inactive: -1.5%; with `Cc1cc(C)cc(N(C(=O)c2ccccc2)C2CCN(C(=O)OC(C)(C)C)CC2)c1`, inactive: -7.9%. With `O=C(NCC1(N2CCOCC2)CCCCC1)c1cc2ccccc2o1` the figure was inactive: 10.5%; with `O=C(OC1CN2CCC1CC2)C1c2ccccc2Oc2ccccc21` (stereo unspecified), inactive: -28.8%.

Regarding `O=c1[nH]c2ccccc2n1C1CCN(C(c2cc3ccccc3o2)c2nnnn2C2CCCCC2)CC1` (stereo unspecified), the inhibition was inactive: 9.6%. With `O=C(NCC1(N2CCCCC2)CCCCC1)c1ccc(Cl)s1` the figure was inactive: 4.2%. With `N#CC1(Nc2ccccc2)CCN(Cc2ccccc2)CC1` the figure was inactive: 2.1%; with `COc1ccc(Cl)cc1C(=O)NCC1(N2CCOCC2)CCCCC1`, inactive: 2.2%. Regarding `CCOC(=O)N1CCC(Nc2ccc(OC)cc2)CC1`, the inhibition is inactive: -1.6%. With `CCCCn1nnnc1C(c1ccc(OC)cc1)N1CCC(n2c(=O)[nH]c3ccccc32)CC1` (stereo unspecified) the figure was inactive: -1.9%. As to `CC(C)(C)n1nnnc1C(c1ccccc1)N1CCC(n2c(=O)[nH]c3ccccc32)CC1` (stereo unspecified), the inhibition is inactive: 6.9%. With `O=C1CCN(Cc2ccccc2)CC1`, the inhibition was inactive: 10.1%. The result for `CCOc1ccc(C)cc1CN(CCCl)CCCl` reads inactive: -3.4%; that for `O=C(NCC1(N2CCCCC2)CCCCC1)c1ccc(F)cc1`, inactive: -5.8%; that for `CCCCn1nnnc1C(c1cc2ccccc2o1)N1CCC(n2c(=O)[nH]c3ccccc32)CC1` (stereo unspecified), inactive: 16.1%.

Take `O=P1(N(CCCl)CCCl)SCCCS1`: the inhibition is inactive: -4.7%. With `CCCCOc1ccc(C(=O)NCC2(N3CCOCC3)CCCCC2)cc1` the figure was inactive: -1.6%; with `COc1ccc(NC2CCN(CCc3ccccc3)CC2)c(OC)c1`, inactive: 8%; with `CCOC(=O)N1CCC(Nc2ccc(F)cc2)CC1`, inactive: -1.7%.

Turning to `O=c1[nH]c2ccccc2n1C1CCN(C(c2ccccc2)c2nnnn2C2CCCCC2)CC1` (stereo unspecified), the inhibition is inactive: 15.3%. The result for `COc1cc(C(=O)NCC2(N(C)C)CCCCC2)ccc1OC(F)F` reads inactive: 3.6%; that for `CCOC(=O)N1CCC(Nc2cccc(C)c2)CC1`, inactive: -5.8%. `O=c1[nH]c2ccccc2n1C1CCN(C(c2cccc3ccccc23)c2nnnn2C2CCCC2)CC1` (stereo unspecified): the inhibition was inactive: 3.7%.
